Experimental data: US20220211678A1, “USES OF (+)-A-DIHYDROTETRABENAZINE IN METHODS OF TREATING MOVEMENT DISORDER” (ADEPTIO PHARMACEUTICALS LIMITED, priority 2017, published 2022)

By UniProt entry, the sequences of proteins in these tests, tags left out.
UniProt Q05940, whole entry: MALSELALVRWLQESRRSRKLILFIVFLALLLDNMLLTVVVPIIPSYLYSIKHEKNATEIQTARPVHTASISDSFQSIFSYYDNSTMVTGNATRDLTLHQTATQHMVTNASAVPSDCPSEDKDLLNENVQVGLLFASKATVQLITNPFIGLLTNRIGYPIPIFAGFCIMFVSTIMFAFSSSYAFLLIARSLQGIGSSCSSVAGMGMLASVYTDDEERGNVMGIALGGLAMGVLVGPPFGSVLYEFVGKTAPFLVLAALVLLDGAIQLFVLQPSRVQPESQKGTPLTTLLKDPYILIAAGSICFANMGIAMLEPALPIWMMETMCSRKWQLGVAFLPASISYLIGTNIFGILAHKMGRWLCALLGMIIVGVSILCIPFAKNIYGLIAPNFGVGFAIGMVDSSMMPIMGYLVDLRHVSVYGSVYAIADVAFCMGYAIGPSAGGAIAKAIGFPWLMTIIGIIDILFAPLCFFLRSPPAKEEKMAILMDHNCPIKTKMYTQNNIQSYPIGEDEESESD
UniProt Q01827, whole entry: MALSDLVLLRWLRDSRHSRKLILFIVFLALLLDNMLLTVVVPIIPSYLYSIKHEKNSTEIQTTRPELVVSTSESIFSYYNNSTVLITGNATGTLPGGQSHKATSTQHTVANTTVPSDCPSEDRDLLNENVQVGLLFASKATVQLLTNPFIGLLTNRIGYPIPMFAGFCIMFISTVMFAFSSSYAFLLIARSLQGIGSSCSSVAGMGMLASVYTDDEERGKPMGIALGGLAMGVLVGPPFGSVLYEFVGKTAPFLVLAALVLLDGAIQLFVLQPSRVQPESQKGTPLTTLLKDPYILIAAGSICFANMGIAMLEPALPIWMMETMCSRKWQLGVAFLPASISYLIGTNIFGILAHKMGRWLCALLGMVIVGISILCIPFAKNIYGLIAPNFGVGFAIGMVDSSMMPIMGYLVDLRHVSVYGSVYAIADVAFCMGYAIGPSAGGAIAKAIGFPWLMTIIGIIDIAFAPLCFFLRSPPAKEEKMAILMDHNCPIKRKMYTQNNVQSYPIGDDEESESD

Key:
VMAT2 [1] = biological target: T1, VMAT2 (Homo sapiens, UniProt Q05940); assay: % VMAT2 blocking by PET scan 60-120 minutes after oral dosing of human volunteers (Example 1A); assay type: in vivo; conditions: average plasma levels of less than 15 ng/ml during the period of PET scanning
T1 construct: from tissue; host or cells: brain of living human volunteers, measured by PET
From the text: Complete blocking of VMAT2 is considered undesirable as this can lead to unwanted side effects, such as Parkinsonism. […] The levels of VMAT2 blocking can be determined by competitive binding studies using Positron Emission Tomography (PET). By co-administering a radioactive ligand with the compound of interest at various concentrations, the proportion of binding sites occupied can be determined (see for example, Matthews et al., “Positron emission tomography molecular imaging for drug development”, Br. J. Clin. Pharmacol., 73:2, 175-186). Accordingly, the invention also provides:
(+)-α-Dihydrotetrabenazine in defined amounts was administered by oral dosing (as a solution in apple juice) to five human volunteers. In four of the volunteers, blood sample were taken at 30, 60, 120 and 180 minutes after drug administration. Blood samples were not taken from the fifth volunteer. At 60 minutes after drug administration, PET scans were initiated and these were stopped at 120 minutes after drug administration.
The experiment was carried out at dosages of 7.5 mg, 15 mg and 22.5 mg.

VMAT2 [2] = biological target: VMAT2 (Rattus norvegicus, UniProt Q01827); conditions: cited from earlier work
VMAT receptor = VMAT receptor (Rattus norvegicus, UniProt Q01827); conditions: in vivo, infusion to equilibrium; cited from earlier work

SMILES | % VMAT2 binding (VMAT2 [1]) | VMAT2 binding activity among the eight dihydrotetrabenazine isomers (VMAT2 [2]) | brain distribution (VMAT receptor)
COc1cc2c(cc1OC)[C@H]1C[C@@H](O)[C@H](CC(C)C)CN1CC2 [(+)-α-dihydrotetrabenazine, (R,R,R)-3-isobutyl-9,10-dimethyloxy-1,3,4,5,7,11b-hexahydro-2H-pyrido[2,1-a]isoquinolin-2-ol] | at least 50% | most active | 
COc1cc2c(cc1O[11CH3])CCN1C[C@H](CC(C)C)[C@@H](O)C[C@@H]21 [(−)-α-[^11C]-dihydrotetrabenazine] |  |  | uniform brain distribution
